Experimental data taken from EP0632806B1 (priority 1992, dated 1993).
Only a part of the results on these compounds is given; other tests are left out.

Amino acid sequences for entries named in this document (tags omitted).
UniProt P15389, whole entry: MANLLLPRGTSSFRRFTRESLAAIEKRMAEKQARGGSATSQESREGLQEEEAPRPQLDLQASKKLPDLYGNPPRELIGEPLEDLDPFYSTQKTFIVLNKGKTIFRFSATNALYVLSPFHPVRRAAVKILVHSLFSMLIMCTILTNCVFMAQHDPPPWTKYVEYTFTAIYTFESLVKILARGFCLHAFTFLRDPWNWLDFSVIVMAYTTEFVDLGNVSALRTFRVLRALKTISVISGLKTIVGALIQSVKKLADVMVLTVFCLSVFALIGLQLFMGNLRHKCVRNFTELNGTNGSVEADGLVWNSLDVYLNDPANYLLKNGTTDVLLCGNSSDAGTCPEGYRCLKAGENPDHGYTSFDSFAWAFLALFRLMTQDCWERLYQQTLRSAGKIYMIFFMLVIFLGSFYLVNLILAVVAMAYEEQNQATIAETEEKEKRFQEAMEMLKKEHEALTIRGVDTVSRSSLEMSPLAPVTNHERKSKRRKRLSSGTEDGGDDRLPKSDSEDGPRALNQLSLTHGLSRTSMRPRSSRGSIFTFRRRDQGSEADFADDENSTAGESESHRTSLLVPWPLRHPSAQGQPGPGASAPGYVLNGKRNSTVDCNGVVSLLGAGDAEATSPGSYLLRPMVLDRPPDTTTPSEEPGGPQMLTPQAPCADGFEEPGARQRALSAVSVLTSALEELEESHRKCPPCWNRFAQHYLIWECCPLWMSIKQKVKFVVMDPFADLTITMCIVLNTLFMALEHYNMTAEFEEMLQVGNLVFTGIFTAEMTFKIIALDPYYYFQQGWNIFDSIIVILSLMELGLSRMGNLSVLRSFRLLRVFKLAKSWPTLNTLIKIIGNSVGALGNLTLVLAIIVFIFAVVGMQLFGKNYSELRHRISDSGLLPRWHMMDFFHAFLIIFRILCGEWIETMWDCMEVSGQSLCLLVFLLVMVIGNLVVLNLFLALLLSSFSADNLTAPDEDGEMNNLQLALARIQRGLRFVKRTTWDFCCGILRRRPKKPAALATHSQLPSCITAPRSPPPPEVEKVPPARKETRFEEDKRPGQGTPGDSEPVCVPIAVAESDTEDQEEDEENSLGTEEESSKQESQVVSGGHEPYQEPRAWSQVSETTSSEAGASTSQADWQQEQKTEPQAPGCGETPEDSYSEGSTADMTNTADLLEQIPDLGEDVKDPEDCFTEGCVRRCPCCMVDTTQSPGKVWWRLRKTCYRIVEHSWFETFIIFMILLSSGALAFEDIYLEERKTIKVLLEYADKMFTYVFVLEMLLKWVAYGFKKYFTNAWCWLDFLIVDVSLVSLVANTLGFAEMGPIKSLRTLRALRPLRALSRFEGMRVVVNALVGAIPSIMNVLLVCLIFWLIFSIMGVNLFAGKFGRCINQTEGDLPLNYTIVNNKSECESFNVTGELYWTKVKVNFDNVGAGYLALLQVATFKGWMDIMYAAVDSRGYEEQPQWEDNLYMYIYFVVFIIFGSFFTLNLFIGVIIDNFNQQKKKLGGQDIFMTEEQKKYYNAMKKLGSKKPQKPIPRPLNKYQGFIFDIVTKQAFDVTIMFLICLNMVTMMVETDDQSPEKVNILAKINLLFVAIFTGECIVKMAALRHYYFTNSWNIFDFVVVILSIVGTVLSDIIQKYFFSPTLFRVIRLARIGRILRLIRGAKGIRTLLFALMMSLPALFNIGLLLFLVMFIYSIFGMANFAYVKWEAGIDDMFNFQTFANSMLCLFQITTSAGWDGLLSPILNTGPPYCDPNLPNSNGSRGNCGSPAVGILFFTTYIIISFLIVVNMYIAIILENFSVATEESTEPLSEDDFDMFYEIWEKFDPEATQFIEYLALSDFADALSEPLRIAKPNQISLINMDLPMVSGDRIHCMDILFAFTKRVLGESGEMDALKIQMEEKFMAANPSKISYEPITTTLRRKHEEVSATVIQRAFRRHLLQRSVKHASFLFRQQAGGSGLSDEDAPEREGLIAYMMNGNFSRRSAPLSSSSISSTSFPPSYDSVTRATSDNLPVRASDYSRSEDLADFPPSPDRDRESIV

Target: cardiac sodium channel (Rattus norvegicus, UniProt P15389)
Assay: Whole cell voltage clamp, sodium current
Details: read-out: EC20 Sodium current reduction; concentration required to produce a 20% change; single isolated adult rat cardiac cells; in the presence of naloxone
Procedure: A compound is also tested directly for effects on sodium and potassium currents in isolated rat myocytes. Isolated rat myocytes are obtained in the conventional manner used to obtain isolated myocytes from isolated hearts. They are used in conventional voltage clamp studies. In order to obtain adequate voltage clamps for estimation of a compound's effects on sodium and potassium currents, the whole-cell patch clamp technique is used. In this technique, a microelectrode is attached to a cell in such a manner that the cell's internal contents are in free communication with the electrode's content. Using the appropriate buffers and conventional voltage step protocols, both sodium and potassium currents can be identified. The effects of a compound are tested on these currents.
In the following examples, antiarrhythmic efficacy was assessed against coronary occlusion induced arrhythmias in the rat using standard methods. ECG and electrophysiological stimulating tests in rats and primates involved standard ECG leads and ventricular stimulation (implanted electrodes in the rats and inserted right ventricular electrodes in primates). Intracellular recordings were made from the epicardium of rat hearts in vivo. Whole cell voltage clamp studies were performed in single, isolated, adult rat heart cells. […]

Question: With `CN(C(=O)COc1ccc(Cl)c(Cl)c1)[C@@H]1CCCC[C@H]1N1CCCC1` (racemic) as the molecule, how does the IC20 read?
Answer: 4 µM
